Experimental data as given in patent publication US12583836B2 (Anaxis Pharma Pty Ltd, priority 2020, dated 2026).

These molecules were tested against T1, MLKL (full length) (Homo sapiens, UniProt Q8NB16) (assay: KINOMEscan binding assay, MLKL). Conditions: equilibrium dissociation constant, class symbols.
T1 construct: purchased DiscoverX (KINOMEscan service); host or cells: E. coli BL21-derived (T7 phage) or HEK293
T1 sequence (Q8NB16 1-471): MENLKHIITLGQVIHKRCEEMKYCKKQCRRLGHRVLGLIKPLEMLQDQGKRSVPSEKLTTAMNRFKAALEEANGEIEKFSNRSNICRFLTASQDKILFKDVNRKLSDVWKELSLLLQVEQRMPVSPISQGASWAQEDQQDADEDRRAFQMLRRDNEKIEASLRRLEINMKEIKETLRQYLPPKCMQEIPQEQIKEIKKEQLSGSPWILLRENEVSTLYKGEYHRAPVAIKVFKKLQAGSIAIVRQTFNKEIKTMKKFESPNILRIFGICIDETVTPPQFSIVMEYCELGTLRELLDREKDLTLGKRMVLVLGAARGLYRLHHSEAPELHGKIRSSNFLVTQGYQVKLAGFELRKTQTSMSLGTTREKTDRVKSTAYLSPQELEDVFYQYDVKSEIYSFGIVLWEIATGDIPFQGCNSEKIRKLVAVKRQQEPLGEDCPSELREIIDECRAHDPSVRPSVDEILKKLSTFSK

pKd | Compound
> 8.00 | CC(C)S(=O)(=O)Nc1ccc(-c2n[nH]c(Nc3cnccn3)c2C(N)=O)cc1 [Compound 71, 3-(4-((1-methylethyl)sulfonamido)phenyl)-5-(pyrazin-2-ylamino)-1H-pyrazole-4-carboxamide]
6.00 to 8.00 | NC(=O)c1c(-c2ccc(NS(=O)(=O)C3CCCCC3)cc2)n[nH]c1Nc1cnccn1 [Compound 74, 3-(4-(cyclohexanesulfonamido)phenyl)-5-(pyrazin-2-ylamino)-1H-pyrazole-4-carboxamide]
6.00 to 8.00 | NC(=O)c1c(-c2ccc(NS(=O)(=O)Cc3ccccc3)cc2)n[nH]c1Nc1cnccn1 [Compound 77, 3-(4-((phenylmethyl)sulfonamido)phenyl)-5-(pyrazin-2-ylamino)-1H-pyrazole-4-carboxamide]
6.00 to 8.00 | NC(=O)c1c(-c2ccc(NS(=O)(=O)Cc3ccc(OC(F)(F)F)cc3)cc2)n[nH]c1Nc1cnccn1 [Compound 80, 5-(pyrazin-2-ylamino)-3-(4-(((4-(trifluoromethoxy)phenyl)methyl)sulfonamido)phenyl)-1H-pyrazole-4-carboxamide]
6.00 to 8.00 | NC(=O)c1c(-c2ccc(NS(=O)(=O)Cc3cccc(C(F)(F)F)c3)cc2)n[nH]c1Nc1cnccn1 [Compound 83, 5-[(pyrazin-2-yl)amino]-3-(4-{[3-(trifluoromethyl)phenyl]methanesulfonamido}phenyl)-1H-pyrazole-4-carboxamide]
> 8.00 | CCS(=O)(=O)Nc1ccc(-c2n[nH]c(Nc3ccc4ccccc4n3)c2C(N)=O)cc1 [Compound 89, 3-(4-(ethylsulfonamido)phenyl)-5-(quinolin-2-ylamino)-1H-pyrazole-4-carboxamide]
> 8.00 | CCS(=O)(=O)Nc1ccc(-c2n[nH]c(Nc3cnc(OC)cn3)c2C(N)=O)cc1 [Compound 90, 3-(4-(ethylsulfonamido)phenyl)-5-((5-methoxypyrazin-2-yl)amino)-1H-pyrazole-4-carboxamide]
> 8.00 | CCS(=O)(=O)Nc1ccc(-c2n[nH]c(Nc3ccc(C(F)(F)F)cn3)c2C(N)=O)cc1 [Compound 93, 3-(4-(ethylsulfonamido)phenyl)-5-((5-(trifluoromethyl)pyridin-2-yl)amino)-1H-pyrazole-4-carboxamide]
6.00 to 8.00 | CCOc1cccc(Nc2[nH]nc(-c3ccc(NS(=O)(=O)CC)cc3)c2C(N)=O)n1 [Compound 96, 5-((6-ethoxypyridin-2yl)amino)-3-(4-(ethylsulfonamido)phenyl)-1H-pyrazole-4-carboxamide]
> 8.00 | CCS(=O)(=O)Nc1ccc(-c2n[nH]c(Nc3cnn(C)c3)c2C(N)=O)cc1 [Compound 100, 3-(4-(ethylsulfonamido)phenyl)-5-((1-methyl-1H-pyrazol-4-yl)amino)-1H-pyrazole-4-carboxamide]
> 8.00 | CCS(=O)(=O)Nc1ccc(-c2n[nH]c(Nc3ccc(C#N)cc3)c2C(N)=O)cc1 [Compound 102, 5-((4-cyanophenyl)amino)-3-(4-(ethylsulfonamido)phenyl)-1H-pyrazole-4-carboxamide]
> 8.00 | CCOc1cc(Nc2[nH]nc(-c3ccc(NS(=O)(=O)CC)cc3)c2C(N)=O)ccn1 [Compound 105, 5-((2-ethoxypyridin-4-yl)amino)-3-(4-(ethylsulfonamido)phenyl)-1H-pyrazole-4-carboxamide]
> 8.00 | C#CCS(=O)(=O)Nc1ccc(-c2n[nH]c(Nc3ccnc(OCCOC)c3)c2C(N)=O)cc1 [Compound 109, 5-((2-(2-methoxyethoxy)pyridin-4-yl)amino)-3-(4-(prop-2-yn-1-ylsulfonamido)phenyl)-1H-pyrazole-4-carboxamide]
> 8.00 | CCS(=O)(=O)Nc1ccc(-c2n[nH]c(Nc3ccc(OC)nc3)c2C(N)=O)cc1 [Compound 115, 3-(4-(ethylsulfonamido)phenyl)-5-((6-methoxypyridin-3-yl)amino)-1H-pyrazole-4-carboxamide]
6.00 to 8.00 | COCCOc1cc(Nc2[nH]nc(-c3ccc(NS(=O)(=O)CCN(C)C)cc3)c2C(N)=O)ccn1 [Compound 116, 3-(4-((2-(dimethylamino)ethyl)sulfonamido)phenyl)-5-((2-(2-methoxyethoxy)pyridin-4-yl)amino)-1H-pyrazole-4-carboxamide]
> 8.00 | COCCOc1cc(Nc2[nH]nc(-c3ccc(NS(=O)(=O)CCOC)cc3)c2C(N)=O)ccn1 [Compound 120, 5-((2-(2-methoxyethoxy)pyridin-4-yl)amino)-3-(4-((2-methoxyethyl)sulfonamido)phenyl)-1H-pyrazole-4-carboxamide]

pKd | Compound
> 8.00 | CCS(=O)(=O)Nc1ccc(-c2n[nH]c(Nc3ccccc3)c2C(N)=O)cc1 [Compound 124, 3-(4-(ethylsulfonamido)phenyl)-5-(phenylamino)-1H-pyrazole-4-carboxamide]
4.52 to 6.00 | CCS(=O)(=O)Nc1ccc(-c2n[nH]c(Nc3ccnc(C)n3)c2C(N)=O)cc1 [Compound 125, 3-(4-(ethylsulfonamido)phenyl)-5-((2-methylpyrimidin-4-yl)amino)-1H-pyrazole-4-carboxamide]
4.52 to 6.00 | CCS(=O)(=O)Nc1ccc(-c2n[nH]c(Nc3cccc(OCCOC)n3)c2C(N)=O)cc1 [Compound 128, 3-(4-(ethylsulfonamido)phenyl)-5-((6-(2-methoxyethoxy)pyridin-2-yl)amino)-1H-pyrazole-4-carboxamide]
4.52 to 6.00 | NC(=O)c1c(-c2ccc(NS(=O)(=O)CCc3ccccc3)cc2)n[nH]c1Nc1ccccn1 [Compound 130, 3-(4-((2-phenylethyl)sulfonamido)phenyl)-5-(pyridin-2-ylamino)-1H-pyrazole-4-carboxamide]
4.52 to 6.00 | NC(=O)c1c(-c2ccc(NS(=O)(=O)c3ccccc3)cc2)n[nH]c1Nc1ccccn1 [Compound 133, 3-(4-(phenylsulfonamido)phenyl)-5-(pyridin-2-ylamino)-1H-pyrazole-4-carboxamide]
4.52 to 6.00 | CCS(=O)(=O)Nc1ccc(-c2n[nH]c(Nc3ccc4ccc(Cl)cc4n3)c2C(N)=O)cc1OCc1ccc(F)cc1 [Compound 138, 5-((7-chloroquinolin-2-yl)amino)-3-(4-(ethylsulfonamido)-3-((4-fluorobenzyl)oxy)phenyl)-1H-pyrazole-4-carboxamide]
> 8.00 | NC(=O)c1c(-c2ccc(NS(=O)(=O)CC(F)(F)F)cc2OCc2ccc(F)cc2)n[nH]c1Nc1cccc(C(F)(F)F)n1 [Compound 140, 3-(2-((4-fluorobenzyl)oxy)-4-((2,2,2-trifluoroethyl)sulfonamido)phenyl)-5-((6-(trifluoromethyl)pyridine-2-yl)amino)-1H-pyrazole-4-carboxamide]
> 8.00 | NC(=O)c1c(-c2ccc(NS(=O)(=O)CC(F)(F)F)c(OC3(c4ccc(F)cc4)CC3)c2)n[nH]c1Nc1cnccn1 [Compound 144, 3-(3-(1-(4-fluorophenyl)cyclopropoxy)-4-((2,2,2-trifluoroethyl)sulfonamido)phenyl)-5-(pyrazin-2-ylamino)-1H-pyrazole-4-carboxamide]
> 8.00 | NC(=O)c1c(-c2ccc(NS(=O)(=O)C(F)F)cc2)n[nH]c1Nc1ccc(C(F)(F)F)cn1 [Compound 145, 3-(4-((difluoromethyl)sulfonamido)phenyl)-5-((5-(trifluoromethyl)pyridine-2-yl)amino)-1H-pyrazole-4-carboxamide]
> 8.00 | CCS(=O)(=O)Nc1ccc(-c2n[nH]c(Nc3cccc(C(F)(F)F)n3)c2C(N)=O)cc1Oc1ccc(F)cc1 [Compound 149, 3-(4-(ethylsulfonamido)-3-(4-fluorophenoxy)phenyl)-5-((6-(trifluoromethyl)pyridine-2-yl)amino)-1H-pyrazole-4-carboxamide]
> 8.00 | CCS(=O)(=O)Nc1ccc(-c2n[nH]c(Nc3cnccn3)c2C(N)=O)cc1OC1(c2ccccc2)CC1 [Compound 152, 3-(4-(ethylsulfonamido)-3-(1-phenylcyclopropoxy)phenyl)-5-(pyrazin-2-ylamino)-1H-pyrazole-4-carboxamide]
> 8.00 | Cc1cnc(Nc2[nH]nc(-c3ccc(NS(=O)(=O)CC(F)(F)F)c(OCc4ccc(Cl)cc4)c3)c2C(N)=O)cn1 [Compound 162, 3-(3-((4-chlorobenzyl)oxy)-4-((2,2,2-trifluoroethyl)sulfonamido)phenyl)-5-((5-methylpyrazin-2-yl)amino)-1H-pyrazole-4-carboxamide]
> 8.00 | C[C@H](Oc1cc(-c2n[nH]c(Nc3cnccn3)c2C(N)=O)ccc1NS(=O)(=O)CC(F)(F)F)c1ccc(F)cc1 [Compound 164, (S)-3-(3-(1-(4-fluorophenyl)ethoxy)-4-((2,2,2-trifluoroethyl)sulfonamido)phenyl)-5-(pyrazin-2-ylamino)-1H-pyrazole-4-carboxamide]
> 8.00 | NC(=O)c1c(-c2ccc(NS(=O)(=O)CC(F)(F)F)c(Oc3ccc(Cl)cc3)c2)n[nH]c1Nc1cnccn1 [Compound 168, 3-(3-(4-chlorophenoxy)-4-((2,2,2-trifluoroethyl)sulfonamido)phenyl)-5-(pyrazin-2-ylamino)-1H-pyrazole-4-carboxamide]
> 8.00 | NC(=O)c1c(-c2ccc(NS(=O)(=O)C3CC3)c(OCc3ccc(F)cc3)c2)n[nH]c1Nc1cnccn1 [Compound 169, 3-(4-(cyclopropanesulfonamido)-3-((4-fluorobenzyl)oxy)phenyl)-5-(pyrazin-2-ylamino)-1H-pyrazole-4-carboxamide]
> 8.00 | CCS(=O)(=O)Nc1ccc(-c2n[nH]c(Nc3cnccn3)c2C(N)=O)cc1OCc1ccc(F)cc1C [Compound 171, 3-(4-(ethylsulfonamido)-3-((4-fluoro-2-methylbenzyl)oxy)phenyl)-5-(pyrazin-2-ylamino)-1H-pyrazole-4-carboxamide]

pKd: −log10 of the molar value.
